# ASAP1 inh: inhibitors of human ASAP1 ArfGAP activity; Q9ULH1; ASAP1-stimulated ARF1 GTP hydrolysis, GDP FP detection; inhibition, % at 16.5 µM; hit rate 0.19% among 360,000; in the data active = inhibition above about 25%;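 also: 0% = vehicle with enzyme and substrate and 100% = no enzyme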
# NRP1-CendR mod: NRP-1/CendR interaction modulation; O14786; FAM-RPARPAR peptide binding to NRP-1, fluorescence polarization; inhibition, % at 25 µM; hit rate 0.85% among 360,000; AID 602438;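 active = inhibition or corrected inhibition above about 18%, plus a signal ratio from 0.5 to 1.5, limit read from the data, passing the limit was not always enough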
# MC4R antag cAMP: blocks human MC4R cAMP signaling; P32245; MC4R-expressing cells, MTII-stimulated cAMP, LANCE TR-FRET; inhibition, % at 6.5 µM; hit rate 0.48% among 360,000;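 active = inhibition above its plate's cutoff, the mean of tested wells on that plate plus 3 SD, cut at about 29% in these data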;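 also: 0% = Melanotan II alone and 100% = Melanotan II plus saturating MCL0020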
#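 Test system: U2OS cells stably expressing human melanocortin 4 receptor (MC4R); also added: Melanotan II challenge; compound: 6.5 µM single dose; timing: 30-min compound preincubation, 1-h Melanotan II challenge, 1-h detection, room temperature; signal: Eu-cAMP/anti-cAMP TR-FRET, emission 671 nm; repeats: one well per compound, no replicates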
# UUG fidelity: alters start codon recognition fidelity in yeast | S. cerevisiae UUG-firefly luciferase reporter, luminescence/redox ratio | activity score, % at 18.7 µM | hit rate 0.13% among 350,000 | AID 602363;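 active means replicate mean at a twofold rise or more, about +100% in these data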;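 further: firefly luciferase made from a UUG start codon reports start codon fidelity; reporter light over untreated wells divided by growth signal over untreated wells; some hits fall short of that in this replicate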
# MC4R ag barr: agonists of human melanocortin 4 receptor (MC4R) beta-arrestin; U2OS MC4R beta-arrestin complementation, luminescence; percent of melanotan II response, DMSO zero; activation, % at 8.9 µM; hit rate 0.98% among 360,000; AID 540308;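 active = activation above a per-plate cutoff, the mean activation of sample wells on that plate plus 3 SD, cut at about 8% in these data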
# ARFGAP1 inh: inhibitors of rat ARFGAP1; Q62848; hit rate 0.26% among 360,000; Arfgap1-stimulated ARF1 GTP hydrolysis, GDP FP detection; inhibition, % at 16.5 µM;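 active = inhibition above a per-plate limit, mean inhibition of low control wells plus 3 SD, cut at about 25% in these data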;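 also: 0% = DMSO wells with enzyme and 100% = wells lacking Arfgap1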
#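 Material – truncated rat Arfgap1 GAP domain · Buffer or medium – HEPES-based buffer, pH 7.5 · Reagent – human ARF1(Δ1-17)-GTP substrate · Dosing – 16.5 µM single point, 1.26% DMSO · Schedule – GTP hydrolysis reaction 2 h at 25 °C · Technique – GDP detection by fluorescence polarization · Benchmarks – No-Arfgap1 wells (100%) versus DMSO full-reaction wells (0%) · Repeats – single replicate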
# MC4R barr conf: human MC4R beta-arrestin agonism confirmation. shares compounds with MC4R ag barr. U2OS MC4R beta-arrestin recruitment, luminescence; scaled DMSO 0%, Melanotan II 100%. activation, % at 8.9 µM. hit rate 31% among 2,400. AID 602192;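 active = mean activation across replicates above the hit cutoff set in the earlier primary screen, cut at about 8% in these data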
# MOR DOR agonist: activates mu-delta opioid heterodimer, MC4R agonist counter-screen | hit rate 5.8% among 2,400 | U2OS PathHunter beta-arrestin, beta-gal luminescence; percent of deltorphin B response, DMSO zero | activation, % at 9.2 µM | AID 602194 | shares compounds with MC4R ag barr;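 active = mean activation across replicates exceeds the hit threshold derived in the earlier primary screen, cut at about 18% in these data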;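 also: 100% = deltorphin B at 0.9 µM final and 0% = DMSO alone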
# The depositor's hits bear a star; · = not tested or not shown. Most compounds without a hit are left out; they make up all but 2.3% or so of the library.
# The line under a structure holds: ASAP1 inh	NRP1-CendR mod	MC4R antag cAMP	UUG fidelity	MC4R ag barr	ARFGAP1 inh	MC4R barr conf	MOR DOR agonist
Cc1ccc2nc(NC(=O)c3cc(-c4ccco4)nc4ccccc34)sc2c1
  -2.3	-5.2	3.3	·	23.3*	-4.8	13.4*	2.9
CO[C@H]1CN(C)C(=O)c2ccc(NS(C)(=O)=O)cc2OC[C@H](C)N(Cc2ccccc2)C[C@H]1C
  ·	·	·	2.6	·	·	·	·
COC(=O)c1ccc(C(=O)Nc2nc3cc(N)c(C)cc3s2)cc1
  10.7	-15.1	-0.5	-19.3	11.3*	16.6	0.5	2.0
Fc1ccccc1/C=N/Nc1nc2ccccc2o1
  -9.7	6.4	-1.3	-16.3	13.0*	8.2	-0.5	5.3
O=C(N[C@@H]1CC[C@@H](CCNS(=O)(=O)Cc2ccccc2)O[C@H]1CO)c1ccccc1F
  ·	·	·	-4.1	·	·	·	·
O=C(Nc1ccc(F)cc1F)c1csc(-c2ccncc2)n1
  -2.3	9.4	20.1	·	1.6	-0.8	·	·
O=C(Nc1ccc(F)cc1F)c1csc(-c2cccs2)n1
  4.5	-0.7	-2.4	·	14.6*	-1.5	0.0	3.6
CCCCN1C(=O)C2(NNc3ccccc3O2)c2ccccc21 (stereo unspecified)
  -6.3	-167.9	21.8	2.7	3.2	-13.7	·	·
C=CCN1C(=O)C2(NNc3ccccc3O2)c2ccccc21 (stereo unspecified)
  16.1	-111.9	2.1	·	9.8*	-3.7	10.2*	4.6
C[C@@H]1CN([C@H](C)CO)C(=O)c2cc(NC(=O)NC3CCCCC3)ccc2O[C@H]1CN(C)S(=O)(=O)c1ccccc1
  ·	·	·	10.3	·	·	·	·

# (more compounds)
# The line under a structure holds: ASAP1 inh	NRP1-CendR mod	MC4R antag cAMP	UUG fidelity	MC4R ag barr	ARFGAP1 inh	MC4R barr conf	MOR DOR agonist
CC1CCCC(NCC(O)COC(c2ccc(F)cc2)c2ccc(F)cc2)C1C (stereo unspecified)
  -12.7	-1.4	9.0	-1.0	18.0*	2.9	16.2*	23.8*
Cn1c(=O)oc2cc(S(=O)(=O)N3CCN(c4cccc(Cl)c4)CC3)ccc21
  -6.7	-63.3	-2.0	-18.6	10.6*	-0.2	0.1	4.3
O=C1COc2ccc(S(=O)(=O)N3CCN(c4cccc(Cl)c4)CC3)cc2N1
  16.2	3.5	-1.1	-12.4	9.6*	-12.3	3.6	9.5
COc1ccc(C(C)=O)cc1CSc1nc2ccccc2c(=O)n1-c1ccccc1
  1.8	-18.1	-24.0	-5.7	15.6*	8.8	2.5	1.9
COc1ccc(C(C)=O)cc1CSc1nc2ccccc2c(=O)n1-c1cccc(C)c1
  -1.1	-11.5	9.5	-16.4	-1.0	3.5	·	·
CCOC(=O)C1(Cc2cccc(OC)c2)CCN(C/C=C/c2ccc(OC)cc2)CC1
  3.8	7.0	-2.1	16.7	2.2	2.4	·	·
CCOC(=O)C1(Cc2cccc(OC)c2)CCN(C/C=C/c2ccccc2)CC1
  6.2	4.0	-2.1	-3.7	12.5*	1.3	10.3*	9.9
C=CCc1cc(/C=N\NC(=O)CSc2nnc(CCCc3ccc(OC)c(C)c3)o2)cc(OC)c1O
  5.5	-1.5	3.6	-16.0	22.8*	-2.7	0.3	4.3
COc1ccc(CCCc2nnc(SCC(=O)N/N=C\c3ccc(O)c(OC)c3)o2)cc1C
  -8.8	-3.4	-0.2	-10.6	-1.2	-4.7	·	·
C=CCc1cc(/C=N/NC(=O)CSc2nnc(CCCc3ccc(OC)cc3)o2)cc(OC)c1O
  7.2	2.8	13.9	-13.3	33.4*	-7.8	4.9	3.5

# Additional results follow:
# The line under a structure holds: ASAP1 inh	NRP1-CendR mod	MC4R antag cAMP	UUG fidelity	MC4R ag barr	ARFGAP1 inh	MC4R barr conf	MOR DOR agonist
COCC(=O)Nc1ccc2c(c1)OC[C@@H](C)N(Cc1ccccc1)C[C@H](C)[C@@H](OC)CN(C)C2=O
  ·	·	·	4.0	·	·	·	·
O=C(C[C@@H]1CC[C@H]2[C@@H](COC[C@H](O)CN2Cc2nccs2)O1)NCc1ccc(Cl)cc1
  ·	·	·	-12.2	·	·	·	·
C[C@@H]1CCCCO[C@H](CN(C)S(=O)(=O)c2ccc(Cl)cc2)[C@H](C)CN([C@@H](C)CO)C(=O)c2cc(NC(=O)CCC(F)(F)F)ccc2O1
  ·	·	·	-3.0	·	·	·	·
CCOc1ccc(-n2c(SCC(=O)Nc3ccc(CC)cc3)nc3n[nH]c(C)c3c2=N)cc1
  -2.5	0.7	5.6	·	1.2	22.8	·	·
Cc1[nH]nc2nc(SCC(=O)NC3CCCCC3)n(-c3ccc(Br)cc3)c(=N)c12
  2.6	-12.9	19.8	-20.7	16.6*	-6.4	7.6	23.1*
COc1cc(CC(=O)NCCc2ccc(OCc3ccccc3)cc2)c([N+](=O)[O-])cc1OC
  8.3	-4.4	1.6	-4.8	12.4*	1.1	1.7	5.2
CCNC(=O)Nc1ccc2c(c1)C(=O)N(C)[C@H]1CC[C@H](CC(=O)Nc3ccccc3)O[C@@H]1CO2
  ·	·	·	-7.7	·	·	·	·
CCCCCCCCCCOC(=O)Cn1c(COc2ccccc2OC)[n+](C)c2ccccc21
  3.7	-2.0	-11.3	-8.5	19.1*	-17.4	16.0*	29.2*
CCCNC(=O)Nc1ccc2c(c1)C(=O)N(C)[C@H]1CC[C@@H](CC(=O)OC)O[C@@H]1CO2
  ·	·	·	1.8	·	·	·	·
Cc1nn(-c2ccccc2)c(N2CCCC2)c1/C=N/NC(=O)c1cc2ccccc2cc1O
  7.2	-39.6	5.8	·	-2.2	9.0	·	·

# Compound profiles, from the list above:
# COc1cc(CC(=O)NCCc2ccc(OCc3ccccc3)cc2)c([N+](=O)[O-])cc1OC is listed as ASAP1 inh: 8.3; NRP1-CendR mod: -4.4; MC4R antag cAMP: 1.6; UUG fidelity: -4.8; MC4R ag barr: 12.4*; ARFGAP1 inh: 1.1; MC4R barr conf: 1.7; MOR DOR agonist: 5.2
# CCOc1ccc(-n2c(SCC(=O)Nc3ccc(CC)cc3)nc3n[nH]c(C)c3c2=N)cc1 is listed as ASAP1 inh: -2.5; NRP1-CendR mod: 0.7; MC4R antag cAMP: 5.6; UUG fidelity: ·; MC4R ag barr: 1.2; ARFGAP1 inh: 22.8; MC4R barr conf: ·; MOR DOR agonist: ·
# Cc1nn(-c2ccccc2)c(N2CCCC2)c1/C=N/NC(=O)c1cc2ccccc2cc1O is listed as ASAP1 inh: 7.2; NRP1-CendR mod: -39.6; MC4R antag cAMP: 5.8; UUG fidelity: ·; MC4R ag barr: -2.2; ARFGAP1 inh: 9.0; MC4R barr conf: ·; MOR DOR agonist: ·

# More results follow:
# The line under a structure holds: ASAP1 inh	NRP1-CendR mod	MC4R antag cAMP	UUG fidelity	MC4R ag barr	ARFGAP1 inh	MC4R barr conf	MOR DOR agonist
Cc1nn(-c2ccccc2)c(N2CCCC2)c1/C=N/NC(=S)Nc1ccccc1F
  -15.9	8.8	1.1	·	14.5*	-5.7	2.7	1.8
Cc1noc(C)c1NC(=O)N(C)C[C@@H]1Oc2ccc(N(C)C)cc2C(=O)N([C@H](C)CO)C[C@@H]1C
  ·	·	·	18.5	·	·	·	·
Clc1ccccc1C=NNc1ccccn1
  -2.0	9.7	-1.5	-4.5	3.5	8.1	·	·
COc1ccc2nc(Cl)c(/C=N/Nc3ccccn3)cc2c1
  5.6	-0.8	2.3	28.8	39.2*	1.7	1.1	4.9
c1cc2c(cc1C1CCCCC1)c1c3n2CCCNC3CCC1 (stereo unspecified)
  -2.5	-7.4	-11.7	·	15.3*	-8.2	32.4*	11.4
Cc1noc(C)c1NC(=O)N[C@@H]1CC[C@H](CCNC(=O)C2CCOCC2)O[C@@H]1CO
  ·	·	·	15.2	·	·	·	·
CC(=O)N1CCN(c2cc(N3CCCC3)c(F)cc2[N+](=O)[O-])CC1
  0.0	9.3	-4.4	0.2	0.1	-6.0	·	·
CCN1CCN(c2cc(N3CCc4ccccc4C3)c(F)cc2[N+](=O)[O-])CC1
  3.1	8.0	-6.0	·	14.9*	-8.9	14.5*	14.8
OC1(c2cccc(C(F)(F)F)c2)CCN(c2ncnc3c2[nH]c2ccccc23)CC1
  -4.2	-4.4	6.3	9.4	10.9*	12.9	2.4	4.5
c1ccc2c(c1)[nH]c1c(N3CCC4(CC3)OCCO4)ncnc12
  ·	12.1	4.5	-14.5	-1.6	·	·	·
Cc1ccc(C(=O)Nc2ncc(Cc3ccc(F)cc3)s2)o1
  3.7	3.3	2.1	-19.3	-1.6	2.4	·	·

# Screens deposited in PubChem BioAssay by several laboratories.
